Reference: paper PMC12678819, “Targeting bacterial kinases as a strategy to counteract antibiotic resistance” (2025)

Sequences of proteins named here, by UniProt entry; tags and fusion partners are left off. A change or cut given only in a name is not applied to a line headed by its entry. Residues count along the entry.
UniProt P15056, 457-717 limits assumed: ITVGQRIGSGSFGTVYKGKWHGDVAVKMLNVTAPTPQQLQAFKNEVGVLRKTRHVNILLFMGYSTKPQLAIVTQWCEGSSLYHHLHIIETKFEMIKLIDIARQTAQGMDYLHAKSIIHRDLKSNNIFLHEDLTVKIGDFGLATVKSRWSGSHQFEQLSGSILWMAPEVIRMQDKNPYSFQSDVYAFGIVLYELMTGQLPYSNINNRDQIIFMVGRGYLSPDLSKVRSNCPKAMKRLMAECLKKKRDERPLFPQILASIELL
UniProt Q16566, 46-300 limits assumed: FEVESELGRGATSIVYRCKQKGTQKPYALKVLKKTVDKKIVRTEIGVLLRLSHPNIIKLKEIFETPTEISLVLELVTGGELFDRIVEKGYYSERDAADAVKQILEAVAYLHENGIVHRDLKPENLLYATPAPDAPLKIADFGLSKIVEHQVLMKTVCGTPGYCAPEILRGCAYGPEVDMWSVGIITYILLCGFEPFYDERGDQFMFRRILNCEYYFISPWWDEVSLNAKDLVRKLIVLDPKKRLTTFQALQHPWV
UniProt O96017, 220-486 limits assumed: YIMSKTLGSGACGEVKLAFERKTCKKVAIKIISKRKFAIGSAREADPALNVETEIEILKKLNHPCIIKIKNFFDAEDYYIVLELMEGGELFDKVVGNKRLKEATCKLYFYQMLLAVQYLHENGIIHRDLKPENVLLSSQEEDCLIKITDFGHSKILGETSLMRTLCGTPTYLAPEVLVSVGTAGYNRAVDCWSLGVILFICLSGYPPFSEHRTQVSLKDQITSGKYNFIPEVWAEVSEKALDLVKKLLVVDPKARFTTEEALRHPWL
UniProt P48730, 9-277 limits assumed: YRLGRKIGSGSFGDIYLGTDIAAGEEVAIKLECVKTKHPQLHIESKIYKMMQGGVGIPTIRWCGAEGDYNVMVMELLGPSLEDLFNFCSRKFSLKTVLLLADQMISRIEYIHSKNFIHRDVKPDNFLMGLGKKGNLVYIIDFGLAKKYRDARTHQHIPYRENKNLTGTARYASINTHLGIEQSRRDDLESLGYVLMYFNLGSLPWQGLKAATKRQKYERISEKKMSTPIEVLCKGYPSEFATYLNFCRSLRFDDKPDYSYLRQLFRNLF
UniProt Q15375, 590-899 limits assumed: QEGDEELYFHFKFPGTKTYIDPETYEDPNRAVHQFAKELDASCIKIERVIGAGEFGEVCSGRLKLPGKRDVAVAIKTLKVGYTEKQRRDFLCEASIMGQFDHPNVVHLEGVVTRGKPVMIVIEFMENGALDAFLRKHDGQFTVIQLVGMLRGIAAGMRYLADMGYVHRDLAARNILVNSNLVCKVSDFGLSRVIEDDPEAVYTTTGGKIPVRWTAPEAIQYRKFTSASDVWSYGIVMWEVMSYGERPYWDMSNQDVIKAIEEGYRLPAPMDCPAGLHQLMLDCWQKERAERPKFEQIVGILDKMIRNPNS
UniProt P54753, 633-896 limits assumed: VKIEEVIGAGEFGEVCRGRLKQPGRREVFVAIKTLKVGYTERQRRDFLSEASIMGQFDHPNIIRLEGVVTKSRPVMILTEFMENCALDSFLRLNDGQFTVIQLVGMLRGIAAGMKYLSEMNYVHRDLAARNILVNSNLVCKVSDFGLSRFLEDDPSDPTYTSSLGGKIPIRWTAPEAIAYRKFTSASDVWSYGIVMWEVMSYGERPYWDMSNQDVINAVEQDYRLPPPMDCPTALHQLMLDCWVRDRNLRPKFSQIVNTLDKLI
UniProt P22830, 55-423 limits assumed: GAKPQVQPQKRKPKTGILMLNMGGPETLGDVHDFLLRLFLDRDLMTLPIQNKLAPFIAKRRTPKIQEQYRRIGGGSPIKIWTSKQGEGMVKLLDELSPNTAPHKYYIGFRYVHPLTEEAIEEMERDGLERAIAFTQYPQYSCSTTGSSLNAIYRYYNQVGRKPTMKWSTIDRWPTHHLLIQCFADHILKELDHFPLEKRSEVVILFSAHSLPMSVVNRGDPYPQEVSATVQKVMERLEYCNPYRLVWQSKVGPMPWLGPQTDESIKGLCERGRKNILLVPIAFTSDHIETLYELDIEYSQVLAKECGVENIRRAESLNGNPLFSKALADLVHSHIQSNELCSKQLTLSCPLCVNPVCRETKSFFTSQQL
UniProt O14976, 14-351 limits assumed: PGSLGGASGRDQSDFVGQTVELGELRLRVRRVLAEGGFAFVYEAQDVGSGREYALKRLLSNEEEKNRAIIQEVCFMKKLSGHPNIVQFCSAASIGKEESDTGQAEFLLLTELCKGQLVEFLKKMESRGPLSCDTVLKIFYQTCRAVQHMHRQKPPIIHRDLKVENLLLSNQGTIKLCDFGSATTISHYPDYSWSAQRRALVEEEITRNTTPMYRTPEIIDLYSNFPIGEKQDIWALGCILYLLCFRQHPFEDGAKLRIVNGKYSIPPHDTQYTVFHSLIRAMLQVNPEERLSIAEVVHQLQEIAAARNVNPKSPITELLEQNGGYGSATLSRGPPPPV
UniProt Q8TF76, 484-798 limits assumed: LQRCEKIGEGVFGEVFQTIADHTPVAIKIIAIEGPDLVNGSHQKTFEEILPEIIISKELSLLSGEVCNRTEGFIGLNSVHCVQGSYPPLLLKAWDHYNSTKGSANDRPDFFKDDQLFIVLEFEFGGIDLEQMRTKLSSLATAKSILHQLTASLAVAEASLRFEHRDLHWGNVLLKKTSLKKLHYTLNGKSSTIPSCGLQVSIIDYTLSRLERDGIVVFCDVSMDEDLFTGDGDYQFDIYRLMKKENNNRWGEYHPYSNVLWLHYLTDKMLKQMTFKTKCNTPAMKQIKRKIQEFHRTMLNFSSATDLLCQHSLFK
UniProt P53779, 39-402 limits assumed: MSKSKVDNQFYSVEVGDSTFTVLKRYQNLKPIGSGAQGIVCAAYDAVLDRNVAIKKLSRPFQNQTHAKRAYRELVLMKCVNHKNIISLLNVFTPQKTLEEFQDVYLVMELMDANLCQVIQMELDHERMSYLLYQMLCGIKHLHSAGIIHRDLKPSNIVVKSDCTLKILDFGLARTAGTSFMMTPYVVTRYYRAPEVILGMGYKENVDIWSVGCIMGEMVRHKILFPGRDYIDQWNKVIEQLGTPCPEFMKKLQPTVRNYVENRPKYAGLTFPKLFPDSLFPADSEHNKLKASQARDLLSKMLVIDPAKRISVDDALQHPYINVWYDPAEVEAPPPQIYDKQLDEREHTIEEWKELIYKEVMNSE
UniProt P52564, 53-314 limits assumed: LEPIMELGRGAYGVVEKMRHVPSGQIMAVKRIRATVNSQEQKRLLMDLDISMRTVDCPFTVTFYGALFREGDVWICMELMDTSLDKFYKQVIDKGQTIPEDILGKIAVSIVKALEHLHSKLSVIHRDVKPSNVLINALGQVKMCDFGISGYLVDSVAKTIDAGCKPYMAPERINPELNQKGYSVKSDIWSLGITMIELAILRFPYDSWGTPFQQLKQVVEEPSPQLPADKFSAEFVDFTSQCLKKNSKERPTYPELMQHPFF
UniProt Q99683, 659-951 limits assumed: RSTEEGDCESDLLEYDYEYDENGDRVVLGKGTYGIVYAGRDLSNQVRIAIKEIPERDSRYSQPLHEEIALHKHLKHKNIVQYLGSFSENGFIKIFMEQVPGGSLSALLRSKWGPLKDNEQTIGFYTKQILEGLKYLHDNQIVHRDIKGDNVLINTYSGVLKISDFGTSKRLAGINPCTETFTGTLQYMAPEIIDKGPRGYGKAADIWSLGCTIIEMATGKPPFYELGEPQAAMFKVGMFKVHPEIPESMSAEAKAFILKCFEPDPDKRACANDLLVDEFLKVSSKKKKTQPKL
UniProt Q96L34, 59-310 limits assumed: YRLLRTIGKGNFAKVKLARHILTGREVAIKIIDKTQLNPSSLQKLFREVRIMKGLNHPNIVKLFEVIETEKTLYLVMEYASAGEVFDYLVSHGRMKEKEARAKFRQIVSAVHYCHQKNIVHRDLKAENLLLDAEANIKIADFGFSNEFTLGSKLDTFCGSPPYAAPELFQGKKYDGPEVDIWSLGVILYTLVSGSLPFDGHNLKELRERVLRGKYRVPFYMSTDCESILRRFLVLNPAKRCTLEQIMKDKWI
UniProt P45985, 102-367 limits assumed: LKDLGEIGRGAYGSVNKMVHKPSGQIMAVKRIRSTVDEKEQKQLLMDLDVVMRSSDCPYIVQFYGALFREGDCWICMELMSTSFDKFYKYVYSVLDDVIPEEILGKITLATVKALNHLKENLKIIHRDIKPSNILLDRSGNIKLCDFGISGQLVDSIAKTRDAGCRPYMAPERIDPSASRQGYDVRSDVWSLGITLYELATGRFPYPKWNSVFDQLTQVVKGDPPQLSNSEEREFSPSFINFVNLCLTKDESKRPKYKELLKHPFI
UniProt Q13043, 1-311 limits assumed: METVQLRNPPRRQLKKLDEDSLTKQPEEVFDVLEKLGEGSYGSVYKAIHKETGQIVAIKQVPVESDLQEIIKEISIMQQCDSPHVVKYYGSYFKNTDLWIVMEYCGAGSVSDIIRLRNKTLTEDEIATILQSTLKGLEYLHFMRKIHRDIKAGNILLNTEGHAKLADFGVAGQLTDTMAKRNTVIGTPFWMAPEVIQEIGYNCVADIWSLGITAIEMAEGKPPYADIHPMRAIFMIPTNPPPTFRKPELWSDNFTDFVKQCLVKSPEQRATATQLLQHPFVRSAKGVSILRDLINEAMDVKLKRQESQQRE
UniProt Q13188, 16-313 limits assumed: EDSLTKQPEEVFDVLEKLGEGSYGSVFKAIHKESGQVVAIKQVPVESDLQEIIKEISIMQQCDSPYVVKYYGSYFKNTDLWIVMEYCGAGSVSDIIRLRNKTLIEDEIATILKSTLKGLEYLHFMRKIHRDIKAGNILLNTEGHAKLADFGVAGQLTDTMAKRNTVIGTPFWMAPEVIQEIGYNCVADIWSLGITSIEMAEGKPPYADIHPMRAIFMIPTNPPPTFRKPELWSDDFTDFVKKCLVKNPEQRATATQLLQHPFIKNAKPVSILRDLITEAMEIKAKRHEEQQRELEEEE
UniProt Q9Y6E0, 36-286 limits assumed: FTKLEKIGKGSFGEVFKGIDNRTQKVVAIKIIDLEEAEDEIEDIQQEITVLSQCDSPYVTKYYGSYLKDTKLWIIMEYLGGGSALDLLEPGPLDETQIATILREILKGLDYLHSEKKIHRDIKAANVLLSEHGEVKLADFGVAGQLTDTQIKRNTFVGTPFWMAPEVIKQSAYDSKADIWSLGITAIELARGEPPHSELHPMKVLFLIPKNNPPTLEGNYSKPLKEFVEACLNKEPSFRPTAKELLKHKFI
UniProt Q9P289, 1-300 limits assumed: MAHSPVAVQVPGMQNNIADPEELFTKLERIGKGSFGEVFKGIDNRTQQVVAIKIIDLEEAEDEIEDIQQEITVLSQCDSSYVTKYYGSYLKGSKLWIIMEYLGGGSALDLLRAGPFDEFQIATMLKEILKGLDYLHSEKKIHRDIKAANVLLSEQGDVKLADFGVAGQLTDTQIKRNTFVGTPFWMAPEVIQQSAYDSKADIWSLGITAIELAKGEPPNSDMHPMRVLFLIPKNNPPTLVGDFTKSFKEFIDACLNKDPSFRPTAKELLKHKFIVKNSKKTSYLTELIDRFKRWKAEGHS
UniProt Q00536, 163-478 limits assumed: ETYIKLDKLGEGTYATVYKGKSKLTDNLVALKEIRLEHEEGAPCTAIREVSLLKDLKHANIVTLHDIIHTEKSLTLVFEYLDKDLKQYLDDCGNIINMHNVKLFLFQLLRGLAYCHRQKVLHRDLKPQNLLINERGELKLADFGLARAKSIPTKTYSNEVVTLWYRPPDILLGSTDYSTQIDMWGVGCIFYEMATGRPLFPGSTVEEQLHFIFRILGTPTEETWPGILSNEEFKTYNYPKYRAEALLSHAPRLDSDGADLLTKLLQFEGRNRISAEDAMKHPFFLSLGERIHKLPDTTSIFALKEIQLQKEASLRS
UniProt P15735, 6-293 limits assumed: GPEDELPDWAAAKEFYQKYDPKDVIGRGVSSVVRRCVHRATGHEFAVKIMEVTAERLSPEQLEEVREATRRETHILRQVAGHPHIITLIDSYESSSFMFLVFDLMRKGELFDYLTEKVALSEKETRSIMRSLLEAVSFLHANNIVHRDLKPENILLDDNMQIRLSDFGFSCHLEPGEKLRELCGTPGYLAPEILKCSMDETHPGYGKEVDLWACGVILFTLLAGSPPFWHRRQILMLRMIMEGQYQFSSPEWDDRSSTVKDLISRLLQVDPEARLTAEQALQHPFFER
UniProt Q16539, whole entry, looked up: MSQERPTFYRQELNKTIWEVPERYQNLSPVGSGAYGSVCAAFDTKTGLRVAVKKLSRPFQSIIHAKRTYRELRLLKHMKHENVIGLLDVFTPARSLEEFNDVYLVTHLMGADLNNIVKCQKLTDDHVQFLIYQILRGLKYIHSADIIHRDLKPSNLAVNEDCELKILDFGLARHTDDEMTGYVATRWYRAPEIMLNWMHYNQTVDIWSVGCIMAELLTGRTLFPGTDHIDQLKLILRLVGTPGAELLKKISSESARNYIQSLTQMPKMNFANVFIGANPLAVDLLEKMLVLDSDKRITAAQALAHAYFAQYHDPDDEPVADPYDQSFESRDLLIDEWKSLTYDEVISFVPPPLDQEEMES
UniProt O15264: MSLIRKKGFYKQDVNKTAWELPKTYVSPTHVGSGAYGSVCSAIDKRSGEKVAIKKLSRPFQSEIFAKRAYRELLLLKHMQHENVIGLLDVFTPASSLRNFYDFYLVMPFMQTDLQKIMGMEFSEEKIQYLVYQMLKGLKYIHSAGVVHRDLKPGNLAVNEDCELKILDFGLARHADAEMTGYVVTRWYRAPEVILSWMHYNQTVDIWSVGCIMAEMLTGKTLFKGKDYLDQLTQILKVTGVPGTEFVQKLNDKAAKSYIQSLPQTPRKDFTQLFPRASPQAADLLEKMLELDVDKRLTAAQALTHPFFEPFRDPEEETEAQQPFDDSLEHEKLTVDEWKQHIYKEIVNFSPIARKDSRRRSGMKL

Legend:
Experiment in all cases: DSF kinase panel
Settings in all cases: 10 μM
BRAF = BRAF (Homo sapiens, UniProt P15056)
BRD4 = BRD4 (Homo sapiens, UniProt O60885)
CAMK4 = CAMK4 (Homo sapiens, UniProt Q16566)
CHK2 = CHK2 (Homo sapiens, UniProt O96017)
CK1d = CK1d (Homo sapiens, UniProt P48730)
DAPK1 = DAPK1 (Homo sapiens, UniProt P53355)
DCAMKL1 = DCAMKL1 (Homo sapiens, UniProt O15075)
DRAK2 = DRAK2 (Homo sapiens, UniProt O94768)
EPHA5 = EPHA5 (Homo sapiens, UniProt P54756)
EPHA7 = EPHA7 (Homo sapiens, UniProt Q15375)
EPHB3 = EPHB3 (Homo sapiens, UniProt P54753)
EphA2 = EphA2 (Homo sapiens, UniProt P29317)
Erk2 = Erk2 (Homo sapiens, UniProt P28482)
FECH = FECH (Homo sapiens, UniProt P22830)
FGFR2 = FGFR2 (Homo sapiens, UniProt P21802)
FLT1 = FLT1 (Homo sapiens, UniProt P17948)
GAK = GAK (Homo sapiens, UniProt O14976)
Haspin = Haspin (Homo sapiens, UniProt Q8TF76)
JNK1 = JNK1 (Homo sapiens, UniProt P45983)
JNK2 = JNK2 (Homo sapiens, UniProt P45984)
JNK3 = JNK3 (Homo sapiens, UniProt P53779)
MAP2K1 = MAP2K1 (Homo sapiens, UniProt Q02750)
MAP2K6 = MAP2K6 (Homo sapiens, UniProt P52564)
MAP2K7 = MAP2K7 (Homo sapiens, UniProt O14733)
MAP3K5 = MAP3K5 (Homo sapiens, UniProt Q99683)
MAPKAPK2 = MAPKAPK2 (Homo sapiens, UniProt P49137)
MARK4 = MARK4 (Homo sapiens, UniProt Q96L34)
MEK4 = MEK4 (Homo sapiens, UniProt P45985)
MER = MER (Homo sapiens, UniProt Q12866)
MSSK1 = MSSK1 (Homo sapiens, UniProt Q9UPE1)
MST1 = MST1 (Homo sapiens, UniProt Q13043)
MST2 = MST2 (Homo sapiens, UniProt Q13188)
MST3 = MST3 (Homo sapiens, UniProt Q9Y6E0)
MST4 = MST4 (Homo sapiens, UniProt Q9P289)
NDR2 = NDR2 (Homo sapiens, UniProt Q9Y2H1)
NEK7 = NEK7 (Homo sapiens, UniProt Q8TDX7)
PAK4 = PAK4 (Homo sapiens, UniProt O96013)
PCTAIRE1 = PCTAIRE1 (Homo sapiens, UniProt Q00536)
PHKg2 = PHKg2 (Homo sapiens, UniProt P15735)
SLK = SLK (Homo sapiens, UniProt Q9H2G2)
p38a = p38a (Homo sapiens, UniProt Q16539)
p38d = p38d (Homo sapiens, UniProt O15264)

SMILES: C[C@@H](O)CCn1cc(-c2c(Cl)cnc3[nH]ccc23)nn1
- ΔTm BRAF (BRAF): 1.0 °C
- ΔTm BRD4 (BRD4): 0.5 °C
- ΔTm CAMK4 (CAMK4): 0.3 °C
- ΔTm CHK2 (CHK2): 2.4 °C
- ΔTm CK1d (CK1d): 3.8 °C
- ΔTm DAPK1 (DAPK1): 2.6 °C
- ΔTm DCAMKL1 (DCAMKL1): 0.1 °C
- ΔTm DRAK2 (DRAK2): 1.7 °C
- ΔTm EPHA5 (EPHA5): -0.6 °C
- ΔTm EPHA7 (EPHA7): 0.9 °C
- ΔTm EPHB3 (EPHB3): -1.5 °C
- ΔTm EphA2 (EphA2): -0.3 °C
- ΔTm Erk2 (Erk2): 0.6 °C
- ΔTm FECH (FECH): -3.1 °C
- ΔTm FGFR2 (FGFR2): 0.0 °C
- ΔTm FLT1 (FLT1): 3.9 °C
- ΔTm GAK (GAK): 3.3 °C
- ΔTm Haspin (Haspin): 1.2 °C
- ΔTm JNK1 (JNK1): 1.3 °C
- ΔTm JNK2 (JNK2): 0.0 °C
- ΔTm JNK3 (JNK3): 1.4 °C
- ΔTm MAP2K1 (MAP2K1): 0.3 °C
- ΔTm MAP2K6 (MAP2K6): 3.3 °C
- ΔTm MAP2K7 (MAP2K7): -0.8 °C
- ΔTm MAP3K5 (MAP3K5): 5.0 °C
- ΔTm MAPKAPK2 (MAPKAPK2): -0.5 °C
- ΔTm MARK4 (MARK4): 1.7 °C
- ΔTm MEK4 (MEK4): 3.9 °C
- ΔTm MER (MER): 0.0 °C
- ΔTm MSSK1 (MSSK1): -0.2 °C
- ΔTm MST1 (MST1): 2.3 °C
- ΔTm MST2 (MST2): 1.2 °C
- ΔTm MST3 (MST3): -1.9 °C
- ΔTm MST4 (MST4): -1.2 °C
- ΔTm NDR2 (NDR2): -1.1 °C
- ΔTm NEK7 (NEK7): -0.7 °C
- ΔTm PAK4 (PAK4): 2.8 °C
- ΔTm PCTAIRE1 (PCTAIRE1): 0.6 °C
- ΔTm PHKg2 (PHKg2): 0.9 °C
- ΔTm SLK (SLK): -0.4 °C
- ΔTm p38a (p38a): -0.8 °C
- ΔTm p38d (p38d): 0.6 °C

SMILES: C[C@@H](CO)Cn1cc(-c2c(Cl)cnc3[nH]ccc23)nn1
- ΔTm BRAF (BRAF): 1.2 °C
- ΔTm BRD4 (BRD4): 1.6 °C
- ΔTm CAMK4 (CAMK4): 1.0 °C
- ΔTm CHK2 (CHK2): 2.8 °C
- ΔTm CK1d (CK1d): 3.7 °C
- ΔTm DAPK1 (DAPK1): 3.2 °C
- ΔTm DCAMKL1 (DCAMKL1): 1.1 °C
- ΔTm DRAK2 (DRAK2): 2.9 °C
- ΔTm EPHA5 (EPHA5): -0.4 °C
- ΔTm EPHA7 (EPHA7): 1.5 °C
- ΔTm EPHB3 (EPHB3): -0.8 °C
- ΔTm EphA2 (EphA2): -0.3 °C
- ΔTm Erk2 (Erk2): 0.8 °C
- ΔTm FECH (FECH): -0.7 °C
- ΔTm FGFR2 (FGFR2): -0.2 °C
- ΔTm FLT1 (FLT1): 3.9 °C
- ΔTm GAK (GAK): 3.1 °C
- ΔTm Haspin (Haspin): 2.3 °C
- ΔTm JNK1 (JNK1): 1.7 °C
- ΔTm JNK2 (JNK2): 0.6 °C
- ΔTm JNK3 (JNK3): 1.8 °C
- ΔTm MAP2K1 (MAP2K1): 0.7 °C
- ΔTm MAP2K6 (MAP2K6): 4.1 °C
- ΔTm MAP2K7 (MAP2K7): 0.0 °C
- ΔTm MAP3K5 (MAP3K5): 6.3 °C
- ΔTm MAPKAPK2 (MAPKAPK2): -0.1 °C
- ΔTm MARK4 (MARK4): 2.4 °C
- ΔTm MEK4 (MEK4): 4.7 °C
- ΔTm MER (MER): 0.7 °C
- ΔTm MSSK1 (MSSK1): 0.2 °C
- ΔTm MST1 (MST1): 2.5 °C
- ΔTm MST2 (MST2): 2.3 °C
- ΔTm MST3 (MST3): -1.0 °C
- ΔTm MST4 (MST4): -0.4 °C
- ΔTm NDR2 (NDR2): -1.0 °C
- ΔTm NEK7 (NEK7): -0.3 °C
- ΔTm PAK4 (PAK4): 3.3 °C
- ΔTm PCTAIRE1 (PCTAIRE1): 0.6 °C
- ΔTm PHKg2 (PHKg2): 1.5 °C
- ΔTm SLK (SLK): -0.4 °C
- ΔTm p38a (p38a): -0.5 °C
- ΔTm p38d (p38d): 0.9 °C

SMILES: OC[C@H](O)Cn1cc(-c2c(Cl)cnc3[nH]ccc23)nn1
- ΔTm BRAF (BRAF): 0.9 °C
- ΔTm BRD4 (BRD4): 1.4 °C
- ΔTm CAMK4 (CAMK4): -0.9 °C
- ΔTm CHK2 (CHK2): 2.7 °C
- ΔTm CK1d (CK1d): 4.1 °C
- ΔTm DAPK1 (DAPK1): 2.2 °C
- ΔTm DCAMKL1 (DCAMKL1): -0.2 °C
- ΔTm DRAK2 (DRAK2): 2.6 °C
- ΔTm EPHA5 (EPHA5): -0.6 °C
- ΔTm EPHA7 (EPHA7): 0.9 °C
- ΔTm EPHB3 (EPHB3): -1.8 °C
- ΔTm EphA2 (EphA2): -0.4 °C
- ΔTm Erk2 (Erk2): 0.6 °C
- ΔTm FECH (FECH): -1.2 °C
- ΔTm FGFR2 (FGFR2): -0.2 °C
- ΔTm FLT1 (FLT1): 3.6 °C
- ΔTm GAK (GAK): 2.3 °C
- ΔTm Haspin (Haspin): 3.2 °C
- ΔTm JNK1 (JNK1): 1.4 °C
- ΔTm JNK2 (JNK2): 0.4 °C
- ΔTm JNK3 (JNK3): 1.7 °C
- ΔTm MAP2K1 (MAP2K1): 0.3 °C
- ΔTm MAP2K6 (MAP2K6): 3.6 °C
- ΔTm MAP2K7 (MAP2K7): -0.7 °C
- ΔTm MAP3K5 (MAP3K5): 6.4 °C
- ΔTm MAPKAPK2 (MAPKAPK2): -2.3 °C
- ΔTm MARK4 (MARK4): 2.0 °C
- ΔTm MEK4 (MEK4): 4.4 °C
- ΔTm MER (MER): 0.2 °C
- ΔTm MSSK1 (MSSK1): -0.6 °C
- ΔTm MST1 (MST1): 2.4 °C
- ΔTm MST2 (MST2): 3.0 °C
- ΔTm MST3 (MST3): -1.5 °C
- ΔTm MST4 (MST4): -1.2 °C
- ΔTm NDR2 (NDR2): -0.9 °C
- ΔTm NEK7 (NEK7): -0.5 °C
- ΔTm PAK4 (PAK4): 2.5 °C
- ΔTm PCTAIRE1 (PCTAIRE1): -0.1 °C
- ΔTm PHKg2 (PHKg2): 1.1 °C
- ΔTm SLK (SLK): -0.6 °C
- ΔTm p38a (p38a): -0.7 °C
- ΔTm p38d (p38d): 0.6 °C

SMILES: OCCCn1cc(-c2c(Cl)cnc3[nH]ccc23)nn1
- ΔTm BRAF (BRAF): 1.2 °C
- ΔTm BRD4 (BRD4): 1.7 °C
- ΔTm CAMK4 (CAMK4): 0.6 °C
- ΔTm CHK2 (CHK2): 2.5 °C
- ΔTm CK1d (CK1d): 4.5 °C
- ΔTm DAPK1 (DAPK1): 2.7 °C
- ΔTm DCAMKL1 (DCAMKL1): 0.6 °C
- ΔTm DRAK2 (DRAK2): 2.2 °C
- ΔTm EPHA5 (EPHA5): -0.4 °C
- ΔTm EPHA7 (EPHA7): 1.1 °C
- ΔTm EPHB3 (EPHB3): 0.1 °C
- ΔTm EphA2 (EphA2): -0.3 °C
- ΔTm Erk2 (Erk2): 0.7 °C
- ΔTm FECH (FECH): -1.5 °C
- ΔTm FGFR2 (FGFR2): -0.2 °C
- ΔTm FLT1 (FLT1): 3.9 °C
- ΔTm GAK (GAK): 2.3 °C
- ΔTm Haspin (Haspin): 2.7 °C
- ΔTm JNK1 (JNK1): 1.3 °C
- ΔTm JNK2 (JNK2): 0.3 °C
- ΔTm JNK3 (JNK3): 1.4 °C
- ΔTm MAP2K1 (MAP2K1): 0.6 °C
- ΔTm MAP2K6 (MAP2K6): 3.7 °C
- ΔTm MAP2K7 (MAP2K7): -0.3 °C
- ΔTm MAP3K5 (MAP3K5): 6.6 °C
- ΔTm MAPKAPK2 (MAPKAPK2): 0.0 °C
- ΔTm MARK4 (MARK4): 2.3 °C
- ΔTm MEK4 (MEK4): 4.3 °C
- ΔTm MER (MER): 0.3 °C
- ΔTm MSSK1 (MSSK1): -0.1 °C
- ΔTm MST1 (MST1): 2.3 °C
- ΔTm MST2 (MST2): 2.1 °C
- ΔTm MST3 (MST3): -0.9 °C
- ΔTm MST4 (MST4): -0.6 °C
- ΔTm NDR2 (NDR2): -0.7 °C
- ΔTm NEK7 (NEK7): -0.3 °C
- ΔTm PAK4 (PAK4): 2.7 °C
- ΔTm PCTAIRE1 (PCTAIRE1): 0.0 °C
- ΔTm PHKg2 (PHKg2): 1.5 °C
- ΔTm SLK (SLK): -0.2 °C
- ΔTm p38a (p38a): -0.6 °C
- ΔTm p38d (p38d): 0.5 °C
